{"source": "paper PMC7052140", "about": "“Serial femtosecond crystallography on in vivo-grown crystals drives elucidation of mosquitocidal Cyt1Aa bioactivation cascade” (2020)", "key": {"[1]": {"molecular_target": "Cyt1Aa E32Q protoxin (Bacillus thuringiensis subsp. israelensis)"}, "[2]": {"molecular_target": "Cyt1Aa Q168E protoxin (Bacillus thuringiensis subsp. israelensis)"}, "[3]": {"molecular_target": "Cyt1Aa E45Q protoxin (Bacillus thuringiensis subsp. israelensis)"}}, "data": [{"substance": "Cyt1Aa E32Q protoxin (natural protein)", "values": [{"measurement": "fold reduction of cytotoxicity on HEK293 cells against the WT protoxin", "setting": "[1]", "result": 10, "unit": "fold"}]}, {"substance": "Cyt1Aa Q168E protoxin (natural protein)", "values": [{"measurement": "cytotoxicity on HEK293 cells (LC50)", "setting": "[2]", "result": "> 30", "unit": "µM"}]}, {"substance": "Cyt1Aa E45Q protoxin (natural protein)", "values": [{"measurement": "cytotoxicity on HEK293 cells (LC50)", "setting": "[3]", "result": "> 30", "unit": "µM"}]}]}
